pKd: −log10 of the molar value.
Target: SPSB3–ELOBC heterotrimeric complex (SPSB3 amino acids 83–326 with elongin B and elongin C) (UniProt Q6PJ21)
Test: BLI
Details: natural protein

For “His-Halo-tagged cGAS single point mutant of Glu509 (from UniProt Q8N884 1-522)”, the pKd was 4.66.

Substance “His-Halo-tagged cGAS single point mutant of Tyr510 (from UniProt Q8N884 1-522)” has a pKd of 5.48.

— paper PMC10972748
